The target in this assay is T1, SARS-CoV-2 PLpro (PLpro(S2)) (Severe acute respiratory syndrome coronavirus 2, UniProt P0DTD1).
T1 construct: gene rep
The conditions noted are these: autoproteolytic synTF with PLproCSNAT3; dose-response.

From PMC8609006, “Design of modular autoproteolytic gene switches responsive to anti-coronavirus drug candidates” (Nature Communications, 2021) come the findings set out here.

`Cc1ccc(N)cc1C(=O)N[C@H](C)c1cccc2ccccc12` [GRL-0617]: the “fold induction of nanoLuc over non-treated cells (highest concentration tested)” value is listed as 40 fold.
